From patent EP4682144A1, “SOLID FORM OF PYRROLIDONE DERIVATIVE AS GLUCOKINASE ACTIVATOR” (Hua Medicine (Shanghai) Ltd., priority 2023, dated 2024)
Counter-ions that a name gives are not always drawn.

Columns and labels:
[1] = Dynamic vapour sorption (DVS) test; assay type: physicochemical; details: 25 °C
Method: A dynamic vapour sorption (DVS) test was conducted on crystal form A of the free state and crystal form B of the hydrochloride.
A certain amount of powder was taken and put into a sample pan, and hygroscopicity of the sample was evaluated with DVS according to the following instrument method: […]

[2] = Stability test in simulated intestinal fluid (SIF); assay type: in vitro ADME
[3] = Stability test in simulated gastric fluid (SGF); assay type: in vitro ADME; details: 24 hours

Structure (SMILES) | Water sorption capacity at 80%RH, % ([1]; 80%RH) [%] | Water sorption capacity at 90%RH, % ([1]; 90%RH) [%] | Water sorption capacity at 95%RH, % ([1]; 95%RH) [%] | stability in SIF [2] | stability in SGF [3]
CC(C)C[C@@H](C(=O)Nc1ccn(C[C@@H](O)COC(=O)c2cccnc2)n1)N1CC(Oc2ccccc2Cl)=CC1=O [Hydrochloride crystal form B] | 0.455 | 0.625 | 1.046 | – | –
CC(C)C[C@@H](C(=O)Nc1ccn(C[C@@H](O)COC(=O)c2cccnc2)n1)N1CC(Oc2ccccc2Cl)=CC1=O [Compound A, (R)-3-(3-((S)-2-(4-(2-chlorophenoxy)-2-oxo-2,5-dihydro-1H-pyrrol-1-yl)-4-methylpentanamido)-1H-pyrazol-1-yl)-2-hydroxypropyl nicotinate] | – | – | – | extensively degraded | stable
